Results: ChEMBL document CHEMBL1149137, “Synthesis, screening, and molecular modeling of new potent and selective antagonists at the alpha 1d adrenergic receptor” (J Med Chem, 2004)

biological target: Alpha-1A adrenergic receptor (Homo sapiens) (UniProt P35348); assay: In vitro binding affinity towards alpha-1A adrenergic receptor through displacement of [3H]prazosin in cloned human receptor.

Point of comparison: `O=C1CC2(CCCC2)CC(=O)N1CCN1CCN(c2cc(Cl)ccc2Cl)CC1`, Ki 128 nM. Against it:
- O=C1CCC(=O)N1CCN1CCN(c2cc(Cl)ccc2Cl)CC1 — within 1.5-fold, 92 nM
- COc1ccccc1N1CCN(CCN2C(=O)CC3(CCCC3)CC2=O)CC1 [BMY-7378] — 3.9-fold higher, 495 nM
